{"source": "paper PMC9868778", "about": "(Planta Medica, 2022)", "key": {"[1]": {"assay": "Stability of compounds in PBS, perfusion medium and placental homogenate", "type": "in vitro ADME, human", "conditions": "360 min, 4 °C and 37 °C"}, "[2]": {"conditions": "after 360 min; antipyrine from control perfusions"}}, "data": [{"smiles": "Cc1cc(=O)n(-c2ccccc2)n1C", "note": "[antipyrine]", "values": [{"measurement": "stability data in PBS compared with PM", "setting": "[1]", "value": "very comparable"}, {"measurement": "fetal-maternal concentration ratio (FM ratio)", "setting": "[2]", "value": 0.95}]}, {"smiles": "CN(C)CCCC1(c2ccc(F)cc2)OCc2cc(C#N)ccc21", "note": "(stereo not shown) [citalopram]", "values": [{"measurement": "stability data in PBS compared with PM", "setting": "[1]", "value": "very comparable"}, {"measurement": "fetal-maternal concentration ratio (FM ratio)", "setting": "[2]", "value": 0.63}]}]}
